In PubChem BioAssay AID1159606 (Sanford-Burnham Center for Chemical Genomics, 2016) one finds inhibition data, which are given here for 26 compounds.

The list shows a part of the results, in another mix than the full data. Some of these compounds have results that are not shown, active ones among them. Active and inactive are the calls of the source. Rule as the data show it: active = inhibition above about 50%; inactive = the rest.

Usually inhibition stands for the relative decrease from the control value, in per cent.

This assay is described as follows: blockers of TWEAK-induced Fn14 reporter activity – luciferase reporter cells, uHTS, primary screen (AID 1159606). The following applies: TWEAK-stimulated Fn14 reporter cells, luciferase luminescence, 8 h; at 10 µM; hits give high values.
For the compound `Cc1ccc(C(=O)NCC2(N3CCCCC3)CCCCC2)cc1`, the inhibition was inactive: 12.1%. The same measure for `CC(C)N1C(=O)CC2(CCN(CCOC(=O)C(O)(c3ccccc3)c3ccccc3)CC2)C1=O`: inactive: 17.1%; for `CCN(CC)CC(C)C(C)OC(=O)C(O)(c1ccccc1)c1ccccc1` (stereo unspecified): inactive: -5.81%; for `COc1cc(SC)ccc1C(=O)NCC1(N(C)C)CCCCC1`: inactive: 12.4%. As for `CN1[C@@H]2CC[C@H]1CC(OC(=O)C(O)(c1ccccc1)c1ccccc1)C2` (stereo partly specified), the inhibition was inactive: 5.23%. With `O=C(NCC1(N2CCCCC2)CCCCC1)c1cc([N+](=O)[O-])ccc1Cl` the figure was inactive: 7.85%; with `CCN1CCCC(OC(=O)C2(O)c3ccccc3C=Cc3ccccc32)C1` (stereo unspecified), inactive: -0.55%; with `Cc1cc(C(=O)NCC2(N3CCCCC3)CCCCC2)ccc1[N+](=O)[O-]`, inactive: 22.1%. The same measure for `O=C(NCC1(N2CCCCC2)CCCCC1)c1cccc(Br)c1`: inactive: 24.1%; for `COc1ccc(C(=O)NCC2(N(C)C)CCCCC2)cc1`: inactive: -0.71%; for `C=CCN1CCN(CCOC(=O)C(O)(c2ccccc2)c2ccccc2)CC1`: inactive: -6.22%. In the case of `O=C(NCC1(N2CCCCC2)CCCCC1)c1cc(F)c(F)cc1Cl`, the inhibition is inactive: 6.94%.

With `Cc1ccccc1C(=O)NCC1(N2CCCCC2)CCCCC1`, the inhibition is inactive: 0.76%. On to `CN(C)c1ccc(C(=O)NCC2(N(C)C)CCCCC2)cc1`, for which the inhibition is inactive: 4.25%. On to `CN(C)C1CCCC1OC(=O)C(O)(c1ccccc1)c1ccccc1` (stereo unspecified), for which the inhibition is inactive: -0.7%.

For the compound `O=C(NCC1(N2CCCCC2)CCCCC1)c1cccc(Cl)c1`, the inhibition is inactive: 25.4%. The same measure for `COc1cccc(C(=O)NCC2(N3CCCCC3)CCCCC2)c1`: inactive: -0.91%; for `COc1ccc(Cl)cc1C(=O)NCC1(N(C)C)CCCCC1`: inactive: 4.19%; for `COc1cc(C(=O)NCC2(N(C)C)CCCCC2)c([N+](=O)[O-])cc1OC`: inactive: 10.7%. On to `CN(C)C1(CNC(=O)c2ccc(Br)cc2)CCCCC1`, for which the inhibition is inactive: 15.6%. Regarding `CN(C)c1cccc(C(=O)NCC2(N(C)C)CCCCC2)c1`, the inhibition was inactive: -9.5%. With `CC(C)Oc1ccc(C(=O)NCC2(N(C)C)CCCCC2)cc1` the figure was inactive: -7.66%; with `O=C(OCCN1CCCC1)C(O)(c1ccccc1)c1ccccc1`, inactive: 10.5%. With `COc1ccc(Br)c(C(=O)NCC2(N3CCCCC3)CCCCC2)c1` the figure was inactive: -2.68%.

`C=C(C)C#CC(O)(C(=O)OC1CCN(C)CC1)c1ccccc1` (stereo unspecified): the inhibition was inactive: 11%. With `O=C(OC1CN2CCC1CC2)C(CO)(c1ccccc1)c1ccccc1` (stereo unspecified) the figure was inactive: -2.9%.
